Reference: patent US10071957B2, “N-substituted benzamides and methods of use thereof” (GENENTECH, INC., priority 2012, dated 2018)

The chains behind the UniProt entries cited, without tags or fusion partners.
UniProt Q15858, whole entry, looked up: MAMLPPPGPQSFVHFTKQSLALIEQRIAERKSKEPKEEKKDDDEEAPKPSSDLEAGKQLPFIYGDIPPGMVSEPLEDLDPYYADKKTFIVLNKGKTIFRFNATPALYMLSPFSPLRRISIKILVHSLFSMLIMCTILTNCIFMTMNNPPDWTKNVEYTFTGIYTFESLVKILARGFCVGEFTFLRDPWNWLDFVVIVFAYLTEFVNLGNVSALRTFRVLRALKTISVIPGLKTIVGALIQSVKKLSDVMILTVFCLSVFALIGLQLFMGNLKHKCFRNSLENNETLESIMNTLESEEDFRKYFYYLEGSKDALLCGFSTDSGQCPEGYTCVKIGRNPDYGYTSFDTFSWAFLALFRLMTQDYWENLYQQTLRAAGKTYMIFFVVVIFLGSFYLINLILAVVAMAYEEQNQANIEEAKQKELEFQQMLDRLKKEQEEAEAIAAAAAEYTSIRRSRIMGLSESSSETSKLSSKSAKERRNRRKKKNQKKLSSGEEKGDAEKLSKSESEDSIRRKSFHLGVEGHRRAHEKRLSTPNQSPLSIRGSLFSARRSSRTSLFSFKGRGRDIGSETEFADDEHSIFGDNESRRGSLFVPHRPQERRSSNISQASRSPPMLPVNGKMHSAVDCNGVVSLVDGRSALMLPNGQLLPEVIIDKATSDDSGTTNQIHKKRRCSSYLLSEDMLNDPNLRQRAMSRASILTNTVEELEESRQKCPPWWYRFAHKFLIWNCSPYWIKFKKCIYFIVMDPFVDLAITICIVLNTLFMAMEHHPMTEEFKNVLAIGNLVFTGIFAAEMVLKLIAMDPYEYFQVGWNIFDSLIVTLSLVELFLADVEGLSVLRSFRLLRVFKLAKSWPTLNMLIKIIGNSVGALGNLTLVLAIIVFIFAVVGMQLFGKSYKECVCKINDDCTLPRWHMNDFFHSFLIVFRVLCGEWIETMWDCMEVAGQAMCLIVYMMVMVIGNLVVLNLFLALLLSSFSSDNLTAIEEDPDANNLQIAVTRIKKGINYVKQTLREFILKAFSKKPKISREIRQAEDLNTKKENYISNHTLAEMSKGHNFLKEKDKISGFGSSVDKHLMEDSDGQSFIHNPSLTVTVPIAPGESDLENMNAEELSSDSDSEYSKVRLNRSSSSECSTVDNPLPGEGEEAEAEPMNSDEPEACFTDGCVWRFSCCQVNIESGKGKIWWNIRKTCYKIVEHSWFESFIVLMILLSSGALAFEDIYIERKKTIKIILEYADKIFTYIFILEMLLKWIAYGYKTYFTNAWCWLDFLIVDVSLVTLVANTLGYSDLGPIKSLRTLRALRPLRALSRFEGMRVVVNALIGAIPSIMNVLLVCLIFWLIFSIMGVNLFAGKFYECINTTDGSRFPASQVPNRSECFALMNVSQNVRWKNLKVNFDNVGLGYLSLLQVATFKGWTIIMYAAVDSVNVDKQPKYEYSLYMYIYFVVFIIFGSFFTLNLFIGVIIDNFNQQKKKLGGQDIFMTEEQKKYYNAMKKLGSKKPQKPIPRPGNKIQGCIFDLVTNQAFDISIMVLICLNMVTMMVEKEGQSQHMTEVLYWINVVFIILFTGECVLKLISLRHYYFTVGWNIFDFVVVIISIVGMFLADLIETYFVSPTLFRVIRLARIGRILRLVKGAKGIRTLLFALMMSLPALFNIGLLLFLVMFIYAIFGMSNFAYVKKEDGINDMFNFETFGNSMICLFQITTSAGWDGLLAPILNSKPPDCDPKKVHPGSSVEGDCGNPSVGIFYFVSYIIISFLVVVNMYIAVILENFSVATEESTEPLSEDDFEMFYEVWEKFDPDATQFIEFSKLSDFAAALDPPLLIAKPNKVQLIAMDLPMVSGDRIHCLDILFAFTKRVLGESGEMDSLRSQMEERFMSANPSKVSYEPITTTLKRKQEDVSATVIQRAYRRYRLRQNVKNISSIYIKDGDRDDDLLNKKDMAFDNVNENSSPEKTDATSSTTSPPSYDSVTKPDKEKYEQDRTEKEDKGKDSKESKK

How the values were obtained:
hNaV1.7 [1] = target: T1, hNaV1.7 (Homo sapiens (Human), UniProt Q15858); assay: Patch voltage clamp electrophysiology, inactivated state block of NaV1.7 in HEK-293 cells; type: cell-based; details: HEK cells with β1 subunit, read-out: hNaV 1.7 IC50
Experimental: Patch voltage clamp electrophysiology allows for the direct measurement and quantification of block of voltage-gated sodium channels (NaV's), and allows the determination of the time- and voltage-dependence of block which has been interpreted as differential binding to the resting, open, and inactivated states of the sodium channel (Hille, B., Journal of General Physiology (1977), 69: 497-515).
The following patch voltage clamp electrophysiology studies were performed on representative compounds of the invention using human embryonic kidney cells (HEK), permanently transfected with an expression vector containing the full-length cDNA coding for the desired human sodium channel α-subunit, grown in culture media containing 10% FBS, 1% PSG, and 0.5 mg/mL G418 at 37° C. with 5% CO2. […] NaV1.7 and NaV1.5 cDNAs (NM_002977 and AC137587; SCN5A, respectively) were stably expressed in HEK-293 cells. The β1 subunit was coexpressed in both the NaV1.7 and NaV1.5 cell lines.
Sodium currents were measured using the patch clamp technique in the whole-cell configuration using either a PatchXpress automated voltage clamp or manually using an Axopatch 200B (Axon Instruments) or Model 2400 (A-M systems) amplifier. The manual voltage clamp protocol was as follows:
Borosilicate glass micropipettes were fire-polished to a tip diameter yielding a resistance of 2-4 Mohms in the working solutions. The pipette was filled with a solution comprised of: 5 mM NaCl, 10 mM CsCl, 120 mM CsF, 0.1 mM CaCl2, 2 mM MgCl2, 10 mM HEPES, 10 mM EGTA; and adjusted to pH 7.2 with CsOH. […] Control sodium currents were measured in 0.5% DMSO. […]
Currents were recorded at 40 kHz sampling frequency, filtered at […], and stored using a Digidata-1322A analogue/digital interface with the pClamp software (Axon Instruments). […]
The membrane potential was maintained at a voltage where inactivation of the channel is complete (which was −60 mV for both NaV1.7 and NaV1.5). The voltage is then stepped back to a very negative (Vhold=[…]) voltage for 20 ms and then a test pulse is applied to quantify the compound block. […]

hNaV1.7 [2] = target: T1, hNaV1.7; assay: Competitive binding of tritiated compound to membranes from cells expressing hNav1.7 and the β1 subunit; details: 100 pM [3H]compound, 18 h, room temperature; read-out: NaV1.7 395 Membrane Binding IC50
Experimental: Tritiated compound binding to membranes isolated from cells that heterologously express hNav1.7 and the β1 subunit
Preparation of membranes containing recombinantly expressed sodium channels: Frozen recombinant cell pellets were thawed on ice and diluted to 4 times the cell pellet weight with ice cold 50 mM Tris HCl, pH 7.4 buffer. The cell suspensions were homogenized on ice using a motorized glass dounce homogeniser. Homogenates were further diluted 8.4 times with ice cold 50 mM Tris HCl, pH 7.4 buffer and then centrifuged at 200×g at 4° C. for 15 min. The supernatants were collected and centrifuged at 10000×g at 4° C. for 50 min. The pellets were then re-suspended in 100 mM NaCl, 20 mM Tris HCl, pH 7.4 buffer containing 1% v/v protease inhibitors (Calbiochem) and re-homogenized on ice. The homogenized membranes were then processed through a syringe equipped with a 26 gauge needle. Protein concentrations were determined by Bradford Assay and the membranes were stored at −80° C.
Radioligand Binding Studies: Saturation experiments. A representative compound of formula (I) was tritiated. Three tritiums were incorporated in place of methyl hydrogens to generate [^3H]compound. Binding of this radioligand was performed in 5 mL borosilicate glass test tubes at room temperature. Binding was initiated by adding membranes to increasing concentrations of [^3H]compound in 100 mM NaCl, 20 mM Tris HCl, pH 7.4 buffer containing 0.01% w/v bovine serum albumin (BSA) for 18 h. Non-specific binding was determined in the presence of 1 μM unlabelled compound. After 18 h, the reactants were filtered through GF/C glass fiber filters presoaked in 0.5% w/v polyethylene imine. […] [^3H]compound bound to filters was quantified by liquid scintillation counting.
Competitive binding experiments. […] Bound radioactivity was determined by liquid scintillation counting.
Data Analysis: For saturation experiments, non-specific binding was subtracted from total binding to provide specific binding and these values were recalculated in terms of pmol ligand bound per mg protein. Saturation curves were constructed and dissociation constants were calculated using the single site ligand binding model: Beq=(Bmax*X)/(X+Kd), where Beq is the amount of ligand bound at equilibrium, Bmax is the maximum receptor density, Kd is the dissociation constant for the ligand, and X is the free ligand concentration. For competition studies percent inhibition was determined and IC50 values were calculated using a 4 parameter logistic model (% inhibition=(A+((B−A)/(1+((x/C)^D)))) using XLfit, where A and B are the maximal and minimum inhibition respectively, C is the IC50 concentration and D is the (Hill) slope.

IC50 (hNaV1.7 [1]) [nM]	IC50 (hNaV1.7 [2]) [nM]	Structure (SMILES)
142	1560	CN(C)S(=O)(=O)NC(=O)c1ccc(COc2ccc(Cl)c(Cl)c2)cc1 [Preparation 2, 4-((3,4-dichloro-phenoxy)methyl)-N-(N,N-dimethyl-sulfamoyl)benzamide]
16	80.7	O=C(NS(=O)(=O)N1CCC1)c1cc(Cl)c(Oc2ccc(Cl)c(C(F)(F)F)c2)cc1F [Preparation 9, N-(azetidin-1-ylsulfonyl)-5-chloro-4-(4-chloro-3-(trifluoromethyl)phenoxy)-2-fluorobenzamide]
–	6620	CN(C)S(=O)(=O)NC(=O)c1cc(Cl)c(OCCOc2ccccc2)cc1F [Preparation 51, 5-chloro-N-(N,N-dimethylsulfamoyl)-2-fluoro-4-(2-phenoxy-ethoxy)benzamide]

Structure (SMILES)	IC50 (hNaV1.7 [1]) [nM]	IC50 (hNaV1.7 [2]) [nM]
CC(C)COc1ncc(Oc2cc(F)c(C(=O)NS(=O)(=O)NCc3ccccn3)cc2Cl)cc1Cl [Preparation 20, 5-chloro-4-((5-chloro-6-isobutoxypyridin-3-yl)oxy)-2-fluoro-N-(N-(pyridin-2-ylmethyl)sulfamoyl) benzamide 2,2,2-trifluoroacetate]	2340	4250
